# Reference: ChEMBL document CHEMBL1140614, “In silico and in vitro filters for the fast estimation of skin permeation and distribution of new chemical entities” (J Med Chem, 2007)
# Test system: Zone of skin
# Details: human
smiles,measurement,value
O=C(O)c1ccccc1O [SALYCILIC ACID],log Kp,-5.45
